## Antibody variant affinities, Ab-14 light chain, assay 1

All variants were tested on one target, the spike HR2 peptide PDVDLGDISGINAS (SARS-CoV-2).

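The parent was found by panning a naive human phage display library on the peptide. Library AAYL50 holds single substitutions and randomly drawn double and triple substitutions in the CDRs. In AlphaSeq, yeast of one mating type display the scFv and yeast of the other type display the target. Pairs that bind mate more often; barcode pairs of the diploids are counted by sequencing. The ratio of observed to expected reads was calibrated, replicate by replicate, on BCL2-family standards whose Kd was known from biolayer interferometry. Mating was done three times.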

The variants keep the heavy chain, the linker and the frameworks of Ab-14 (scFv order VH, the linker GGGGSGGGGSGGGGS, VL).
VH: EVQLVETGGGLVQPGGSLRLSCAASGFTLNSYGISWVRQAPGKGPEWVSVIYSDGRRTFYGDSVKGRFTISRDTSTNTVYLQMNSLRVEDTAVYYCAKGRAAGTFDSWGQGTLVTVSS
VL: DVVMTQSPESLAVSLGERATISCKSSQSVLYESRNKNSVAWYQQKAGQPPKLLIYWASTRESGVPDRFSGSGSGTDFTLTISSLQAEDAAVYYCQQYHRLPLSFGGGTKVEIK

Changes read parent residue, position, new residue, counted from the first residue of the VL shown. Kd is apparent (estimated from mating counts) and averaged on the log scale over replicates with a signal. Smaller is tighter. An entry "no signal" has no value in the source: the pair was not observed among the diploids in any replicate. This suggests poor binding but is not conclusive. Three control strains display no target. For library AAYL50, 18% of the pairings with them gave a signal, with a median of 15 µM and one signal in twenty below 970 nM, so weak values seen in few replicates may be background.

apparent Kd	replicates with signal	changes
160 nM	1 of 3	T59L/R60W/R99A
1.2 µM	3 of 3	K24N/T59K/S62K
no signal	0 of 3	R34D/R60I/Y97I
2.9 nM	3 of 3	Y31G/A57G/R99K
3.7 nM	3 of 3	S28M/L30S/W56Y
390 nM	2 of 3	Y31H/N35Y/R60Q
7.2 nM	3 of 3	K24V/S25V/N35E
73 µM	2 of 3	S28G/K36S/A40L
no signal	0 of 3	K24N/A40Y/L102P
2.9 nM	3 of 3	Y31L/S33E/R99H
no signal	0 of 3	N37R/V39F/L102P
no signal	0 of 3	S26R/K36T/V39A
30 nM	3 of 3	S25D/Y31D/S103W
no signal	0 of 3	A57Q/Q95M/S103P
no signal	0 of 3	E61P/R99F/L100S
no signal	0 of 3	S26L/R34K/R60D
3.2 nM	3 of 3	N37I/T59I/Y97L
no signal	0 of 3	S26W/E32I/H98W
16 nM	3 of 3	K36S/H98V/L102N
6.3 µM	2 of 3	W56C/E61T
1.0 µM	2 of 3	S25L/Q95H/Y97R
360 nM	2 of 3	S25E/S26V
9.0 µM	1 of 3	S38V/T59G/R99V
2.6 nM	3 of 3	S28P/L30Q/W56M
6.9 µM	1 of 3	R34Y/W56R/P101I
26 nM	3 of 3	N37F/S62F/Q95H
23 µM	2 of 3	S26H/R34I/P101N
180 nM	3 of 3	Q27N/E32L/R99Y
no signal	0 of 3	K36C/V39P/A57M
660 nM	3 of 3	S28R/R34I/S103N
4.3 µM	3 of 3	Q27D/E32M/Y97A
70 µM	3 of 3	T59R/Q96N/L100K
25 nM	3 of 3	S33P/S62V/L102K
6.5 nM	3 of 3	S25Y/L30W/L102V
3.5 nM	3 of 3	S28G/R34E/A57T
48 nM	3 of 3	S26Q/L30G/E32W
23 µM	2 of 3	K24T/S38E/A57K
4.4 nM	3 of 3	L30F/Y31N/W56M
7.4 nM	3 of 3	S26L/V29T/L30I
39 nM	3 of 3	K24E/Y31A/K36S
1.6 µM	3 of 3	E32P/S33F/A57C
120 nM	3 of 3	R34D/W56F/S62A
no signal	0 of 3	K24V/T59K/Y97R
450 µM	1 of 3	N35D/A57F/Y97H
24 nM	3 of 3	Y31G/S58Q/E61L
10 nM	3 of 3	S25Y/S33T
7.6 nM	3 of 3	K36L/H98C/L102G
24 nM	3 of 3	W56F/Q96V/L102V
200 nM	3 of 3	S26W/Q96M/Y97V
3.9 nM	3 of 3	S25L/H98D/R99F
11 nM	3 of 3	S26P/R34A/E61T
1.2 µM	2 of 3	S25I/W56C/S58C
940 nM	1 of 3	R34P/S38E/S103R
no signal	0 of 3	L30G/R34W/Q96K
2.0 nM	3 of 3	R34A/S38N/S58K
89 nM	3 of 3	Q27I/L30M/T59W
no signal	0 of 3	S26V/V29Q/R60G
13 nM	3 of 3	K24N/H98L
no signal	0 of 3	K24F/S25P/S62L
1.3 nM	3 of 3	W56N/S62A/L102H
2.3 nM	3 of 3	V29F/R34K/S38A
no signal	0 of 3	S38D/E61W/L102Q
30 nM	3 of 3	T59M/Q96W/L100H
240 µM	1 of 3	N37F/A57E/R60W
310 nM	3 of 3	E32W/Q96G/L102M
no signal	0 of 3	S28G/Y31I/A40N
no signal	0 of 3	Y31S/A40T/H98Y

The first 10 variants above that were never detected:

changes	apparent Kd	replicates with signal
R34D/R60I/Y97I	no signal	0 of 3
K24N/A40Y/L102P	no signal	0 of 3
N37R/V39F/L102P	no signal	0 of 3
S26R/K36T/V39A	no signal	0 of 3
A57Q/Q95M/S103P	no signal	0 of 3
E61P/R99F/L100S	no signal	0 of 3
S26L/R34K/R60D	no signal	0 of 3
S26W/E32I/H98W	no signal	0 of 3
K36C/V39P/A57M	no signal	0 of 3
K24V/T59K/Y97R	no signal	0 of 3

Data: MIT Lincoln Laboratory AlphaSeq set, Engelhart et al. 2022, doi:10.1038/s41597-022-01779-4, as distributed in FLAb.